## AlphaSeq binding of Ab-14 light chain variants to a spike HR2 peptide

The target is the same throughout: PDVDLGDISGINAS, from the HR2 region of SARS-CoV-2 spike.

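The starting antibody came from a phage panning campaign against this peptide. AAYL50 was designed without a model: most single CDR substitutions and a random sample of double and triple ones. AlphaSeq pools MATa yeast showing the antibodies with MATalpha yeast showing the peptide. Binding brings cells together so that they mate, and sequencing counts the barcode pairs among the diploids. Scores were corrected for input abundance and mapped to Kd with protein pairs of known affinity run in the same pool. Each pool was mated in three replicate cultures.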

Each scFv is VH, the linker GGGGSGGGGSGGGGS, VL, as in the parent Ab-14, and differs from it in the CDRs of the light chain only.
VH: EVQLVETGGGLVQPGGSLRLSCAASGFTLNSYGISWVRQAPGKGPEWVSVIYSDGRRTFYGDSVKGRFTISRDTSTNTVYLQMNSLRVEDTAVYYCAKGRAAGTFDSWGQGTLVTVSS
VL: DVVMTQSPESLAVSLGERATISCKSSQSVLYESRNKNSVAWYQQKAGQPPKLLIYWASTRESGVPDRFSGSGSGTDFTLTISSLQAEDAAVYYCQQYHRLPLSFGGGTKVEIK

The parent's light chain CDRs are KSSQSVLYESRNKNSVA, WASTRES, QQYHRLPLS; each variant's own CDRs replace them letter for letter.
This list gathers variants with a substitution at S33 (VL, numbered from residue 1).
Each Kd is an estimate from the mating assay, the geometric mean of the replicates in which the pair was seen; lower is stronger.
A pair that was not seen in any replicate is written "no signal"; this usually means weak binding, but a binder can also be missed.
Empty control strains, which show no peptide, gave a signal in 18% of pairings with library AAYL50; the median was 15 µM and 95% of these signals were weaker than 970 nM. No background was subtracted.
For reference, the parent read 4.4 nM as the reference entry and 48 nM as a member of this library.

The variant KSSQSVLYEGTNKNSVA | WASTRES | QQYQRLPLS showed 6.9 nM (3 of 3 replicates). The variant KSSQSVLLEFRNKVSVA | WASTRES | QQYHRLPLS gave 54 nM (3 of 3 replicates). With KSYQSVLYEGRNKNSVA | WASTRES | PQYHRLPLS the result was 55 nM (3 of 3 replicates). For KSSQSVLYEQRNKNSVA | WASTRES | QQKGRLPLS, the assay gave no signal (0 of 3 replicates). For KSSQSMLYEKRNKNSVA | WASTRES | QQYHMLPLS, the assay gave 22 µM (1 of 3 replicates). The variant KSSQSVLYEARIKNSVA | WASTQES | QQYHRLPLS showed no signal (0 of 3 replicates).

The variant KSSQAVLYENRNKNSVA | WASTRES | QQYHRLGLS showed 50 µM (1 of 3 replicates). For HSSQSVLYEPRNKNSVA | WASTRES | CQYHRLPLS, the assay gave 22 µM (2 of 3 replicates). The variant KSSQSVLYEMRNKNSVA | WASTRES | QQYHRLPQW showed no signal (0 of 3 replicates). The variant KSSQSVLYIERNKNSVC | WASTRES | QQYHRLPLS gave 7.4 µM (1 of 3 replicates). The variant KSSTQVLYECRNKNSVA | WASTRES | QQYHRLPLS showed 98 µM (1 of 3 replicates). For KSSQSVLYRERNKNSVA | WASTRES | QHYHRLPLS, the assay gave 90 nM (3 of 3 replicates).

For KSSQSVLYECRNKNSVA | WASTREY | WQYHRLPLS, the assay gave 41 nM (3 of 3 replicates). The variant KQSQSVLYEERNKNSVA | WASYRES | QQYHRLPLS gave 13 nM (3 of 3 replicates). The variant KSSQSVLYEKRNKNSVA | WASTRES | QYYHRLPLL showed 1.9 µM (1 of 3 replicates). The variant KSDQSVLYEGRNKNSVA | WASTRES | RQYHRLPLS showed 96 µM (2 of 3 replicates). With KSSQSVLYERRNKNSVA | WSSTRES | QQYHRLPLS the result was 210 nM (2 of 3 replicates). The variant KSSQSVLYTFRNKNSVA | WASTRES | QQYHRLPLS gave 420 nM (3 of 3 replicates).

For KSSQRVLYECQNKNSVA | WASTRES | QQYHRLPLS, the assay gave 6.0 µM (3 of 3 replicates). With KSSQSVLYEPRNKNSVA | WASTRES | QIYHRLSLS the result was 1.0 µM (1 of 3 replicates). The variant KSSQSVLYEMRNKNSVA | KASTRES | QQYHRLPLA gave 5.3 nM (3 of 3 replicates). The variant KSSLSVLYEVRNKNSVA | WASTRES | QIYHRLPLS showed 1.1 µM (2 of 3 replicates). The variant KSNQSVLYEARNNNSVA | WASTRES | QQYHRLPLS showed 14 nM (3 of 3 replicates). The variant KSSQSVLYERRNKNSVA | LASTRES | QQYHFLPLS showed 21 µM (1 of 3 replicates).

The variant KSSQSCLYEMRNKNSVA | WASTRES | QQYHRLPLK showed 440 nM (3 of 3 replicates). The variant KSSQSVLYEYRNKNSVA | WASTDES | QQYHRLPSS gave 27 µM (1 of 3 replicates). The variant KSSQSVLYEPRNKNSVA | WASTRES | QQYHRLPLS gave 910 nM (3 of 3 replicates). With KSMQSVLYEHRNKNSVA | WASTRES | QQYHRLWLS the result was no signal (0 of 3 replicates). The variant KSSQSVLYEERNKNSVD | WAHTRES | QQYHRLPLS gave 680 nM (1 of 3 replicates). With KSSQSVLYEWRNKNSVA | WASTRES | QQYHRLPES the result was 6.1 µM (2 of 3 replicates).

The variant KSSQSVNYEERNKGSVA | WASTRES | QQYHRLPLS showed 4.7 nM (3 of 3 replicates). With KSSQSVLYEQRNKNSVA | WASTRES | QQYHYVPLS the result was no signal (0 of 3 replicates).

A selection of 4 entries from above:

{"CDR-L1": "KSNQSVLYEARNNNSVA", "CDR-L2": "WASTRES", "CDR-L3": "QQYHRLPLS", "Kd": "14 nM", "seen in": "3 of 3"}
{"CDR-L1": "KSSQSVLYEQRNKNSVA", "CDR-L2": "WASTRES", "CDR-L3": "QQKGRLPLS", "Kd": "no signal", "seen in": "0 of 3"}
{"CDR-L1": "KSSQSVLYEMRNKNSVA", "CDR-L2": "KASTRES", "CDR-L3": "QQYHRLPLA", "Kd": "5.3 nM", "seen in": "3 of 3"}
{"CDR-L1": "KSSQSVLYERRNKNSVA", "CDR-L2": "LASTRES", "CDR-L3": "QQYHFLPLS", "Kd": "21 µM", "seen in": "1 of 3"}

Values reported by Engelhart et al. 2022, doi:10.1038/s41597-022-01779-4 (FLAb copy).